Data published in patent US8076375B2 (priority 2005, dated 2011).

What was measured:
[1] = tested on: Lck (activated F505 form); assay: Lck autophosphorylation kinase assay; assay type: biochemical
[2] = at the tested doses; cited from earlier work

Compound: Cc1nn(-c2ccc(S(=O)(=O)O)cc2)c(O)c1N=Nc1ccc(-c2ccc(N=Nc3ccc4c(S(=O)(=O)O)cc(S(=O)(=O)O)c(N)c4c3O)c(O)c2)cc1O
- Effect on Lck activity (in words) ([1]; 10 μM): minimally inhibited
- Percent Lck activity remaining ([1]; 10 μM inhibitor): 45%
- Toxic effects in mammals [2]: no toxic effects were observed
